Consider one molecule from BindingDB's records for doi:10.1021/jm048987t (Chemical Diversity Research Institute, 2005).

What is called IC50 is the concentration that gives 50% inhibition.

The test has as its target T1, Caspase-3 (Homo sapiens, UniProt P42574).
T1 sequence (P42574 whole entry): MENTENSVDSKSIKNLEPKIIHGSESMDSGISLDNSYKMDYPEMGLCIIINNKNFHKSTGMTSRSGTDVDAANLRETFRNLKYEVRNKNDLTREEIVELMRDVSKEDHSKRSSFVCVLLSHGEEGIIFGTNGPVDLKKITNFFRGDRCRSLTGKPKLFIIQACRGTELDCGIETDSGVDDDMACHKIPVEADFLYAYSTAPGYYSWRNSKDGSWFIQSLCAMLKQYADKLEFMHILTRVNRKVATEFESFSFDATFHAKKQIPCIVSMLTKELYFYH
As to the kind of experiment: Caspase Inhibition Assay. Conditions: pH 7.5; 22 °C. The source says:
The substrate peptides terminating in AMC are processed by caspases with or without inhibitors.

`CC(=O)N[C@@H](CC(=O)O)C(=O)N[C@@H](CCC(=O)O)C(=O)N[C@H](C(=O)N[C@H](C=O)CC(=O)O)C(C)C` [(4S)-4-{[(1S)-1-{[(2S)-1-carboxy-3-oxopropan-2-yl]carbamoyl}-2-methylpropyl]carbamoyl}-4-[(3S)-3-acetamido-3-formamidopropanoic acid]butanoic acid] yielded a 50% inhibitory concentration (IC50) of 3.1 nM.
